Experimental data from patent US20220000980A1, “Compositions and Methods for use of CXCL12 in Treatment of Bone Disorders” (NEW YORK UNIVERSITY, priority 2018, published 2022).

Tested on: monocortical tibial defect
Experiment: Monocortical tibial defect repair in mice (microCT new bone volume, Movat's pentachrome histology)
Assay type: in vivo
Description: Bilateral tibial monocortical defects (1.0 mm, circular) were created in 16-week-old adult C57BL/6 female mice, which were sacrificed at post-surgical day (PSD) 10 (n=3 to 6). This model heals reliably through intramembranous ossification [Carrera, R., et al., JBMR 30 (Suppl 1), 2015]. At the time of surgery, each defect was treated with 5 μg of rhBMP-2 (R&D Systems) or rhCXCL12a (R&D Systems) dissolved in the liquid phase of a hydrogel composed of hyaluronic acid and chitosan (BRTI). Hydrogel alone was used as the vehicle control. Once daily on PSD 5 to 8, the right tibia was subjected to a sinusoidal, compressive axial load (120 cycles at 2 Hz with 6 N peak load) using a mechanical testing system (TA ElectroForce 3200) [Norman, S. C., et al., J Biomech, 2015. 48(1): p. 53-58]. MicroCT analysis: Tibiae were fixed in 4% paraformaldehyde overnight at 4° C., and defects were scanned at a 6-micron voxel size (SkyScan 1172). Newly mineralized bone tissue was quantified in a volume of interest that extended 1 mm from each edge of the defect in the longitudinal direction using an adaptive thresholding routine (CTAn Software, Bruker). Tibiae were decalcified in 9% formic acid and paraffin embedded. Thin sections (7 μm) were stained with modified Movat's pentachrome staining. Student's T-test was used to determine significance for P<0.05.

Substance: rhBMP-2: FDA-approved therapeutic agent used clinically to enhance bone repair; clinical gold standard (R&D Systems)
- cartilage formation (Movat's pentachrome staining) (monocortical tibial defect, 5 μg in hydrogel, PSD 10): promoted cartilage formation
- new bone volume by microCT compared to vehicle controls (non-loaded, 5 μg in hyaluronic acid/chitosan hydrogel at surgery, post-surgical day 10, C57BL/6 female mice): 2.08 fold
